Measurements: patent publication US10844062B2, “Pyridine derivative inhibiting RAF kinase and vascular endothelial growth factor receptor, method for preparing same, pharmaceutical composition containing same, and use thereof” (SAMJIN PHARMACEUTICAL CO., LTD., priority 2016, dated 2020)

Experiments:
[1] = system: HUVEC (VEGF); assay: MTT assay; assay type: cell-based; conditions: Table 5; 3 days incubation
Method: (§1) MTT assay is frequently used for the purpose of primary screening for the sensitivity of anticancer agents and to examine cytotoxicity. When cancer cells are treated with varying concentrations of any anticancer agent for a predetermined time to induce death of the cells and are then treated with MTT, and when the formation of formazan is measured, the concentration of the anticancer agent, at which about 50% of the cells survive, can be determined. This concentration value is called IC50. IC50 values differ between drugs, and thus can be characteristic of the drugs. Using this method, the effects of anticancer agents against cell proliferation can be quantitatively compared. Thus, in order to measure the cytotoxicity of samples, MTT assay was performed using CellTiter 96 Non-radioactive Cell Proliferation Assay Kit (Promega).
(§2) Cells in a cell suspension were counted with a hematocytometer, and then 200 μL of the cell suspension was added to each well of a 96 well plate at a desired concentration (cell amount determined depending on a cell line). After cell seeding, the cells were incubated in a CO2 incubator at 37° C. overnight. After one day of cell stabilization, the cells were treated with desired concentrations of the compounds. The cells were incubated in a CO2 incubator at 37° C. for 3 days, and then the sample was removed, and 200 μL of MTT solution was added to each well. After 2 hours of incubation, the MTT dilution was carefully shaken, and 200 μL of DMSO was added to each well, followed by shaking with a plate shaker for 60 minutes. The absorbance at a wavelength of 570 nm was measured using an ELISA reader, thereby determining the IC50 value of each compound (the absorbance indicates the amount of MTT reduced by the cells and is proportional to the number of viable cells present in each well).

[2] = system: HCT-116 KRAS G13D (colon); assay: MTT assay; assay type: cell-based; conditions: Table 5; 3 days incubation; read-out: MTT assay IC50 KRAS mutant (Colon) HCT-116 KRAS G13D
Method: as §1, §2

[3] = system: WiDR BRAF V600E (colon); assay: MTT assay; assay type: cell-based; conditions: Table 5; 3 days incubation; read-out: MTT assay IC50 BRAF mutant (Colon) WiDR BRAF V600E
Method: as §1, §2

[4] = system: A-375P BRAF V600E (melanoma); assay: MTT assay; assay type: cell-based; conditions: Table 5; 3 days incubation
Method: as §1, §2

[5] = system: SK-MEL2 NRAS Q61R (melanoma); assay: MTT assay; assay type: cell-based; conditions: Table 5; 3 days incubation
Method: as §1, §2

[6] = system: SW620 KRAS G12V (colon); assay: MTT assay; assay type: cell-based; conditions: Table 5; 3 days incubation; read-out: MTT assay IC50 KRAS mutant (Colon) SW620 KRAS G12V
Method: as §1, §2

[7] = system: LS513 human colorectal cancer cell line xenograft; assay: Antitumor effect on human colorectal cancer LS513 cell line xenograft; assay type: in vivo, Balb/c nu/nu nude mice; conditions: oral, twice a day, 60 mg/kg or 30 mg/kg (dose not specified per compound), 14 days
Method: The LS513 human colorectal cancer cell line was purchased from the ATCC and incubated in a 5% CO2 incubator with RPMI-1640b medium containing 10% fetal bovine serum and 1% penicillin-streptomycin at 37° C.
In this experiment, 5 to 6-week-old female Balb/c nu/nu nude mice (weighed 18 to 20 g) were used. The mice were provided from Nara Biotech Co., Ltd. During the experiment, all the animals were housed on a mouse constant temperature/constant humidity shelf (Individually Ventilated Cages System, LAB & BIO).
Each cage (37.2 cm length×19.2 cm width×13.1 cm height) was sterilized with a sterilizer, and eight mice were received in each cage. […]
The mice were acclimated to the housing facility for 1 week, and then 0.1 mL of a cell suspension containing 1×10^7 cells was injected subcutaneously into the right flank of each mouse. After cell transplantation, the volume of the formed tumor was measured, and mice with formed tumors having a volume of 150 mm^3 or more were randomly divided into groups (each consisting of 7 to 8 animals) for treatment with the test compounds and a control. […] At 3-day intervals from the starting day of the administration, the long axis and short axis of the tumor were measured with digital vernier calipers, and the tumor volume was calculated using the following equation and recorded: Tumor volume (TV)=Long axis×short axis^2/2. […]

[8] = system: LS513 KRAS G12V (colon); assay: MTT assay; assay type: cell-based, human; conditions: 3 days incubation, read-out: MTT assay IC50 KRAS mutant (Colon) LS513 KRAS G12V
Method: as §1
Cells in a cell suspension were counted with a hematocytometer, and then 200 μL of the cell suspension was added to each well of a 96 well plate at a desired concentration (cell amount determined depending on a cell line). After cell seeding, the cells were incubated in a CO2 incubator at 37° C. overnight. After one day of cell stabilization, the cells were treated with desired concentrations of the compounds. The cells were incubated in a CO2 incubator at 37° C. for 3 days, and then the sample was removed, and 200 μL of MTT solution was added to each well. […]

O=C(Nc1ccc(F)c(Nc2ncccc2-c2ncnc3[nH]cnc23)c1F)c1cc(N2CCOCC2)cc(C(F)(F)F)c1 [Comparative Example 1, reference compound]
IC50 [1]: 15 µM
IC50 [2]: 15.5 µM
IC50 [3]: 335 nM
IC50 [4]: 2 nM
IC50 [5]: 4.34 µM
IC50 [6]: 50 µM
antitumor effect (tumor growth inhibition) compared to the vehicle control [7]: 3.82%
IC50 ([8]; Table 4): > 50 µM
IC50 ([8]; Table 5): 55.3 µM

Read-outs that look alike come from different tables or passages of the source.
